According to patent US20250382344A1, “Soluble GLP1/GIP/NPY2 Receptor Triple Agonists” (Boehringer Ingelheim International GmH, priority 2024, published 2025):
Read-outs that look alike come from different tables or passages of the source.

Chains of the proteins cited; added tags and fusions are not shown. Residues count along the entry.
UniProt P43220, 24-463: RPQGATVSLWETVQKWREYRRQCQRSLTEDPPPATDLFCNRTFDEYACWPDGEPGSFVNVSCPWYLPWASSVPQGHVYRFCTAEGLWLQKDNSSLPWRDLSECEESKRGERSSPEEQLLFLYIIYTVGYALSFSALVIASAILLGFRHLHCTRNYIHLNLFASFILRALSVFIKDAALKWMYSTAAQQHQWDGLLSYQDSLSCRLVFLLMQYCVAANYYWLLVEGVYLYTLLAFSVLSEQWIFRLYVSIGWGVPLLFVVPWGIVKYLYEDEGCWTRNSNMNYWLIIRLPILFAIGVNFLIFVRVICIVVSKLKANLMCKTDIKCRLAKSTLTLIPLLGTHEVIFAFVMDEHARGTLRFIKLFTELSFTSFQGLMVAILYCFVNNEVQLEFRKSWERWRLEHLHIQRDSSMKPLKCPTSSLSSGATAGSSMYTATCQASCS
UniProt P49146, whole entry: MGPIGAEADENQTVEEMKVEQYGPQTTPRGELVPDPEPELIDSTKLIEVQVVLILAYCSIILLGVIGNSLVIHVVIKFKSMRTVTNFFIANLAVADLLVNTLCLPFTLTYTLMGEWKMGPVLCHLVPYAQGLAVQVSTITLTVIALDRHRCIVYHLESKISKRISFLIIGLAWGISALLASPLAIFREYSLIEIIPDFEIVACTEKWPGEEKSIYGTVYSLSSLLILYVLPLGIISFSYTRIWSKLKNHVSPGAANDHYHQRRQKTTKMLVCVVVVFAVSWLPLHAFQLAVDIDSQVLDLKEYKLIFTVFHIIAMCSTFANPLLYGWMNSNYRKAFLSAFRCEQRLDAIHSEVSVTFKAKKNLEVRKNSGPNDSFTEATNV

Tests used:
hGLP1R = biological target: T1, hGLP1R (Homo sapiens, UniProt P43220); experiment: hGLP1R CreLuc assay in 0.5% and 100% plasma (HEK-293 CRE-luciferase reporter cells); type: cell-based
T1 construct: expressed in transfected cells; host or cells: HEK-293 CRE-luciferase reporter cells
Text: (§1) CHO and HEK-293 recombinant cell lines express a luciferase reporter gene under control of the CAMP responsive element (CRE). As a second recombinant protein the GLP-1 and NPY2 receptors were expressed in the reporter gene HEK cells, and the GIP receptor was expressed in the reporter gene CHO cells, respectively. Stimulation of these recombinant cells with an agonist leads to an increase of intracellular CAMP levels. In the presence of CAMP, the transcription factor CRE binding protein (CREB) binds to the CRE and to the CREB binding protein (CBP), which leads to transcription of the luciferase reporter gene. Peptides upon serial-dilution in 100% DMSO were transferred into 384-well assay plates with 5 μl pre-dispensed assay buffer (1×HBSS, 20 mM HEPES, pH7.4 supplemented with 0.5% human plasma) using acoustic dispensing on a Labcyte ECHO. Cryo-preserved transgenic reporter gene cells were thawed in assay buffer. 20 μl (10.000 cells/well) were added to the plate with the peptides and incubated for 4 hours at 37° C. in a humidified incubator. Following incubation, assay plates are equilibrated to room temperature, followed by addition of 25 μl of Bright-Glo™ Luciferase reagent, incubation at room temperature for 10 minutes and analysis of luminescence (Envision Reader). […] EC50 values were calculated by non-linear regression using sigmoid concentration-response with variable slope.
(§2) The same assays were run in the presence of 100% plasma with no additional buffer constituents.

hGIPR = biological target: T2, hGIPR (Homo sapiens, UniProt P48546); experiment: hGIPR CreLuc assay in 0.5% and 100% plasma (CHO CRE-luciferase reporter cells); type: cell-based
T2 construct: expressed in transfected cells; host or cells: CHO CRE-luciferase reporter cells
T2 sequence (P48546 22-466): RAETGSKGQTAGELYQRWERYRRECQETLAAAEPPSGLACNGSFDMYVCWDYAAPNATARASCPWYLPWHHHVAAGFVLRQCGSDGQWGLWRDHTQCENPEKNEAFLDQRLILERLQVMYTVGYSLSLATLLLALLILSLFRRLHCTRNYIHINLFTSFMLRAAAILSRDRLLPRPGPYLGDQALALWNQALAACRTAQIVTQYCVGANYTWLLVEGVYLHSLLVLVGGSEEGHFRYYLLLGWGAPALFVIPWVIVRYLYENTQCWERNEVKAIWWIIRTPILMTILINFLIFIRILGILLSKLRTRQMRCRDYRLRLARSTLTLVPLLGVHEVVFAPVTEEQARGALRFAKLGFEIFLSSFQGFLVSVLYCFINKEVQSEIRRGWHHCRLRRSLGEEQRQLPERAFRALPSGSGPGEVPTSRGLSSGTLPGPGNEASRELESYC
Text: as §1, §2

hNPY2R = biological target: T3, hNPY2R (Homo sapiens, UniProt P49146); experiment: hNPY2R CreLuc assay in 0.5% and 100% plasma (HEK-293 CRE-luciferase reporter cells); type: cell-based
T3 construct: expressed in transfected cells; host or cells: HEK-293 CRE-luciferase reporter cells
Text: as §1, §2

[1] = Solubility in 0.1 M phosphate buffer at pH 7; type: physicochemical; settings: 0.1 M phosphate buffer at pH 7, 10 mg/mL final peptide concentration, shaking 2 hours at room temperature, peptides as TFA-salts; measured sample pH 6.5-7.0
Method: Peptides (as TFA-salts) were weighed out in a filter unit (Mini-UniPrep Syringeless Filter 0.45 μm, Whatman PVDF), and 0.1 M phosphate buffer at pH 7 was added to achieve 10 mg/mL final peptide concentration. The peptides were dissolved by shaking the filter units horizontally at 600 rpm for 2 hours at room temperature. Samples were then filtered to remove any insoluble particles. Controls were prepared by weighing out the corresponding peptide solid material and dissolving it in an appropriate vehicle (e.g. ACN:H2O) to a final concentration of 1 mg/mL. Both, the control and sample were analyzed by reversed phase chromatography. The area under the peak of the sample was compared to the control and the solubility was calculated based on that ratio. The pH was measured and recorded for each sample.

“Y-Aib-E-G-T-F-T-S-D-Y-S-I-Aib-L-E-K-Q-A-E-Aib-A-F-V-R-H-L-I-N-K(1,3)-Aib-T-R-Q-R-Y-NH2.C20DA-gGlu-gGlu-gGlu-gGlu-OEG-gGlu-eLys(1,2) [Compound 148]” gave an EC50 (hGLP1R; read-out: hGLP1R 0.5% hP, 0.5% human plasma, HEK-293 reporter cells) of 3.2 nM, an EC50 (hGLP1R; read-out: hGLP1R 100% hP, 100% human plasma, HEK-293 reporter cells) of 3.9 nM and an EC50 (hGIPR; read-out: hGIPR 0.5% hP, 0.5% human plasma) of 0.8 nM. It also gave an EC50 (hGIPR; read-out: hGIPR 100% hP, 100% human plasma) of 17.3 nM, an EC50 (hNPY2R; read-out: hNPY2R 0.5% hP, 0.5% human plasma, HEK-293 reporter cells) of 9.5 nM and an EC50 (hNPY2R; read-out: hNPY2R 100% hP, 100% human plasma, HEK-293 reporter cells) of 68 nM. The “Solubility” value [1] was 8.6 mg/mL.
